The values below are quoted from earlier work in US8334239B2, “High affinity VEGF-receptor antagonists” (The Board of Regents of the University of Texas System, priority 2007, dated 2012).

Amino acid sequences for entries named in this document (tags omitted). Residues count along the entry.
UniProt P35968, 20-1356: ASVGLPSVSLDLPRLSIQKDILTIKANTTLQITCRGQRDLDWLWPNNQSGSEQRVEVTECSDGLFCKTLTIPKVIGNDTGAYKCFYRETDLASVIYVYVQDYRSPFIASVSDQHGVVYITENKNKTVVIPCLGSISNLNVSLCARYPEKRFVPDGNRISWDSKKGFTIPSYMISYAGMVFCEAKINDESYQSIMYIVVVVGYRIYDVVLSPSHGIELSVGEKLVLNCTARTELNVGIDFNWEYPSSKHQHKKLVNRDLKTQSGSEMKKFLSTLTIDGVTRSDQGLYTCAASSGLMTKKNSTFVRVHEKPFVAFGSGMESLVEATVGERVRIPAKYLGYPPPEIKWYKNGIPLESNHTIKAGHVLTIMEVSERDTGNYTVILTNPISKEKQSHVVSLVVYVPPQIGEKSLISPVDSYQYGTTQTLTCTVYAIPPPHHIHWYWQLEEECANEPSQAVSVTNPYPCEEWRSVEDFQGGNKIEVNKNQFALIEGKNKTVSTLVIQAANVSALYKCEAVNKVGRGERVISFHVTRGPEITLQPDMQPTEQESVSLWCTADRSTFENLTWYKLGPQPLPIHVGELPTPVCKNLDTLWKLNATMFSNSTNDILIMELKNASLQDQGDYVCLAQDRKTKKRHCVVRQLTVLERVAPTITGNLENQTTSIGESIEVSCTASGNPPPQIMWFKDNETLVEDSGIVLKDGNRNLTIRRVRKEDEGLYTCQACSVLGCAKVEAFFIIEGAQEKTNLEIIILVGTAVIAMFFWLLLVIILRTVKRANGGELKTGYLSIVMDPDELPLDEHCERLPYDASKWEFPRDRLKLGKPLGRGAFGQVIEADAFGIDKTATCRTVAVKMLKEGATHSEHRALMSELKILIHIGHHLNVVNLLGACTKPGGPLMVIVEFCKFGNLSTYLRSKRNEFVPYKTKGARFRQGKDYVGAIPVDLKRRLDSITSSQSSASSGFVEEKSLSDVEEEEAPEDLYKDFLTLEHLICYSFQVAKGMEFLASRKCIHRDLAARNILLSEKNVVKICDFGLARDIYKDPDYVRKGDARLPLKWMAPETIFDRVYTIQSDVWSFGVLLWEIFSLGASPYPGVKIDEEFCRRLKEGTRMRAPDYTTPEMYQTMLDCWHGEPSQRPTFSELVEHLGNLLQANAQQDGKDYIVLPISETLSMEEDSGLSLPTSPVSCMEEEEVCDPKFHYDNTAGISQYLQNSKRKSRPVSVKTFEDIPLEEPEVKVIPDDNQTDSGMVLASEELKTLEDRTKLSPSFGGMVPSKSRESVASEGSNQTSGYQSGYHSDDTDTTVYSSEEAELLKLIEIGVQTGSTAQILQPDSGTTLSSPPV

This data set has as its target VEGFR2 (Homo sapiens, UniProt P35968). The settings on record: read-out: KD for the receptor; cited from earlier work.

As for VEGF, the dissociation constant (Kd) is 0.05 nM.
